Results reported in patent US6323205A (priority 2000, dated 2001).

Conditions: rat, in vivo, iv

Structure (SMILES): C#CCC(Cc1cnc2nc(N)nc(N)c2n1)c1ccc(C(=O)N[C@@H](CCC(=O)O)C(=O)O)cc1 (stereo partly drawn) [10-propargyl-10-deazaaminopterin]
- Survivors After 32 days (50 mg/kg): 5/5
- body weight changes (50 mg/kg): no apparent changes in body weight were observed
- Survivors After 32 days (100 mg/kg): 4/5
- Survivors After 32 days (150 mg/kg): 2/5
- rats died (150 mg/kg): three out of the five rats died
- Survivors After 32 days (200 mg/kg): 0/5
- rats died (200 mg/kg): all five rats died
- Survivors After 32 days (300 mg/kg): 0/5
- rats died (300 mg/kg): all five rats also died

Where two headings read alike, the source gives them in different places.
